# In US20220133694A1, “PHARMACEUTICAL USE” (Novartis AG, priority 2015, published 2022):
# Test system: heart failure patients (NYHA class II-IV) with reduced ejection fraction
# Conditions: for proportion of patients who achieved the target dose of LCZ696 200 mg bid without any dose adjustment or interruption over 12 weeks: across both run-in and randomized periods; for rate of treatment success when up-titrated more gradually (6 weeks versus 3 weeks), in words: low dose / low RAAS stratum (naive or equivalent to <10 mg enalapril/day)
substance,measurement,setting,value
"trisodium [3-((1S,3R)-1-biphenyl-4-ylmethyl-3-ethoxycarbonyl-1-butylcarbamoyl) propionate-(S)-3′-methyl-2′-(pentanoyl{2″-(tetrazol-5-ylate)biphenyl-4′-ylmethyl}amino)butyrate]hemipentahydrate [LCZ696]",difference between the uptitration regimens in the treatment success rate,ACEI/ARB-naive patients,no major difference
same,proportion of patients who achieved the target dose of LCZ696 200 mg bid without any dose adjustment or interruption over 12 weeks,based on total number of patients receiving at least one dose of study medication,70%
same,proportion of patients who achieved the target dose of LCZ696 200 mg bid without any dose adjustment or interruption over 12 weeks,discontinuations due to non-AE reasons excluded,76%
same,"patients who achieved and maintained the target dose of 200 mg twice daily without any dose interruption or down-titration over 12 weeks, in words",all patients initiated on treatment,large majority
same,difference in treatment success rate by rate of up-titration (3 weeks vs. 6 weeks),high RAAS stratum,no difference
same,"treatment success rate (achieved target dose 200 mg bid, no dose adjustment/interruption over 12 weeks)","high RAAS stratum (prior high levels of RAAS therapy), 3 or 6 weeks up-titration",83%
same,"difference in treatment success rate, gradual up-titration over 6 weeks compared to condensed up-titration over 3 weeks",low RAAS stratum,10%
same,"treatment success rate (achieved target dose 200 mg bid, no dose adjustment/interruption over 12 weeks)","low RAAS stratum (ACEI/ARB naive or prior low levels of RAAS therapy), up-titrated over 6 weeks",85%
same,"treatment success rate (achieved target dose 200 mg bid, no dose adjustment/interruption over 12 weeks)","low RAAS stratum, up-titrated over 3 weeks",74%
same,"rate of treatment success when up-titrated more gradually (6 weeks versus 3 weeks), in words",,higher
same,"rate of treatment success when up-titrated more gradually (6 weeks versus 3 weeks), in words",listed as sacubitril and valsartan in a 1:1 molar ration,More patients
same,proportion of patients on the LCZ696 200 mg bid target dose for at least 2 weeks before study completion,"randomized patients, excluding those who discontinued due to non-AE related reasons",85%
same,proportion of patients who achieved the target LCZ696 200 mg bid dose without any down-titration or dose interruption over the entire 12-week study period,"randomized patients, excluding those who discontinued due to non-AE related reasons, both regimens",81%

# Like-named read-outs stand apart in the source and are kept apart here.
